# Measured values from patent publication US20220370630A1, “TRANSMUCOSAL DELIVERY SYSTEM FOR PHARMACEUTICAL ACTIVE INGREDIENT TO SUBMUCOSAL TISSUE OF BLADDER” (SEIKAGAKU CORPORATION, priority 2019, published 2022).
# Assays:
# [1] = Evaluation using rat 1: fluorescence imaging of bladder frozen sections after administration of fluorescently labeled compounds to the lumen of the bladder, integrated luminance; format: in vivo; conditions: for Integrated value of luminance (on day 1 after administration): relative value based on Example 1, 0.2 mL of 1% (w/v) into the bladder lumen for 30 minutes, hydrochloric acid-pretreated female SD rat, frozen section
# Experimental: The concentration of each of the fluorescently labeled compounds in the test substances was set to 1% (w/v).
# The lower abdomen of a rat (SD strain (SPF), female, at 7 to 9 weeks of age) was pressed under isoflurane inhalation anesthesia (concentration: 2.0 to 4.0%, flow rate: 2 to 3 L/min) to evacuate residual urine from the bladder of the rat. A catheter (PE50) was transurethrally inserted into the lumen of the bladder, and the lumen of the bladder was washed with 0.2 mL of physiological saline. Thereafter, 0.2 mL of 0.4 mol/L hydrochloric acid was injected into the lumen of the bladder and allowed to stay there for 3 minutes and 15 seconds. After allowing hydrochloric acid to stay there, the lumen of the bladder was washed four times with 0.4 mL of physiological saline.
# On day 1 after the pretreatment, 0.2 mL of each test substance was transurethrally administered to the lumen of the bladder using a catheter (PE50) under isoflurane inhalation anesthesia and allowed to stay there for 30 minutes.
# On day 1 after the administration of the test substance, the bladder of the rat was collected, and a frozen section was prepared perpendicularly to an axis connecting the top of the bladder to the urethra. With respect to the frozen section, a bright field image (visible light) and a fluorescent image (excitation wavelength: 470 nm, absorption wavelength: 525 nm) were captured using a fluorescence microscope. Further, the obtained fluorescent image was analyzed by Hybrid Cell Count of Software (BZ-X Analyzer) attached to the fluorescence microscope. The extraction threshold for fluorescence was set to 40, and an integrated value of the luminance of each fluorescent image was calculated.
# [2] = Release test: release ratio of API from the derivative in phosphate buffer solution pH 7.4 at 36° C., HPLC; format: physicochemical; conditions: phosphate buffer pH 7.4, 36° C.; for Release ratio of API: 5 mg/10 mL; for Release rate: slope of release ratio against time
# Experimental: In Examples pertaining to a release test, a release ratio of a pharmaceutical active ingredient (API) from a chondroitin sulfate derivative and a hyaluronic acid derivative, each of which was not fluorescently labeled was evaluated as follows. […] The release ratio was calculated based on the ratio of peak areas of HPLC corresponding to the amount of API in the derivative and the amount of released API using a size-exclusion chromatography column (TSKgel α, manufactured by Tosoh Corporation). Release ratio (%)=peak area of released API/(peak area of API in each derivative+peak area of released API)×100 Also with respect to the hyaluronic acid derivatives of Comparative Examples 2 to 3, evaluation was performed in the same manner as for Examples.
substance,measurement,setting,value
Fluorescently Labeled 2-Aminoethyl-Diclofenac-Introduced CS [Fluorescently labeled CS-DIC-conjugate],Integrated value of luminance (on day 1 after administration),[1],2.36
"Fluorescently Labeled 3-Aminopropyl Cinnamate-Introduced HA [Fluorescently labeled HA-CIN-conjugate, reference compound]",Integrated value of luminance (on day 1 after administration),[1],0.05
2-aminoethyl-naproxen-introduced CS [CS-NAP-conjugate],Release ratio of API,[2]; elapsed time 0 days,0.08%
same,Release ratio of API,[2]; elapsed time 1 day,0.27%
same,Release ratio of API,[2]; elapsed time 2 days,0.39%
same,Release ratio of API,[2]; elapsed time 3 days,0.52%
same,Release ratio of API,[2]; elapsed time 4 days,0.68%
same,Release ratio of API,[2]; elapsed time 5 days,0.82%
same,Release ratio of API,[2]; elapsed time 6 days,0.97%
same,Release ratio of API,[2]; elapsed time 7 days,1.06%
same,Release rate,[2],0.14%/day
Fluorescently Labeled 21-β-Alanyl-Triamcinolone Acetonide-Introduced CS [Fluorescently labeled CS-TA-conjugate],Integrated value of luminance (on day 7 after administration),"[1]; rat, in vivo",1.00
21-β-alanyl-triamcinolone acetonide-introduced CS [CS-TA-conjugate],Release ratio of API,[2]; elapsed time 0 days,0.10%
same,Release ratio of API,[2]; elapsed time 1 day,1.22%
same,Release ratio of API,[2]; elapsed time 2 days,1.91%
same,Release ratio of API,[2]; elapsed time 3 days,2.93%
same,Release ratio of API,[2]; elapsed time 4 days,3.92%
same,Release ratio of API,[2]; elapsed time 5 days,4.52%
same,Release ratio of API,[2]; elapsed time 6 days,5.73%
same,Release ratio of API,[2]; elapsed time 7 days,6.17%
same,Release rate,[2],0.48%/day
"21-β-Alanyl-Triamcinolone Acetonide-Introduced HA [HA-TA-conjugate, reference compound]",Release ratio of API,[2]; elapsed time 0 days,23.23%
same,Release ratio of API,[2]; elapsed time 1 day,32.86%
same,Release ratio of API,[2]; elapsed time 2 days,40.59%
same,Release ratio of API,[2]; elapsed time 3 days,47.40%
same,Release ratio of API,[2]; elapsed time 4 days,53.06%
same,Release ratio of API,[2]; elapsed time 5 days,57.00%
same,Release ratio of API,[2]; elapsed time 6 days,61.61%
same,Release ratio of API,[2]; elapsed time 7 days,63.76%
same,Release of API (result in words),[2]; 1 week,a substantial release of the active ingredient was already confirmed at the start of the test
same,Release rate,[2],5.74%/day
